{
  "sequences": {"note": "Amino acid sequences for entries named in this document (tags omitted).", "UniProt O95977, whole entry": "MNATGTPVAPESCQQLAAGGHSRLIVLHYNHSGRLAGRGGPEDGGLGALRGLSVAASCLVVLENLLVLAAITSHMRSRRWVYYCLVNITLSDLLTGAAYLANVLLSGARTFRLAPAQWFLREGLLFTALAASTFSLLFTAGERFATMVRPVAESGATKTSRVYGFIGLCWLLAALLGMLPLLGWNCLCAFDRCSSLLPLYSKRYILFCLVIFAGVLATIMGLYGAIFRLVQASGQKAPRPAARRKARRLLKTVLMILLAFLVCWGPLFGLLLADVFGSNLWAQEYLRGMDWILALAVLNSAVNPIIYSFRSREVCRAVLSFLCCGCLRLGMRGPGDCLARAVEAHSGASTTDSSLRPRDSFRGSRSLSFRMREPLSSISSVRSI"},
  "source": "PubChem BioAssay AID1509",
  "about": "(The Scripps Research Institute Molecular Screening Center, 2009)",
  "note": "Only a part is listed here, and it is no random draw. Some results for these compounds are left out of this collection, so the calls shown say nothing about other tests. Calls of active or inactive are those of the source. No stated cut-off is given here; in the data, active means activation above about 11%; inactive means the rest.",
  "data": [
    {"molecular_target": "Sphingosine 1-phosphate receptor 4 (Homo sapiens) (UniProt O95977)", "assay": "activators of human S1P4 receptor – cell-based, primary screen (AID 1509);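 further: 0% = DMSO vehicle and 100% = reference agonist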", "conditions": "S1P4-expressing cell line, agonist reporter assay; at 4.98 µM; hits give high values", "values": [
      {"molecule": "COc1cccc(C(=O)NCC2(N3CCCCC3)CCCCC2)c1", "activation": "inactive: 0.13%"},
      {"molecule": "O=C(OC1CN2CCC1CC2)C(CO)(c1ccccc1)c1ccccc1", "note": "(stereo unspecified)", "activation": "inactive: -2.17%"},
      {"molecule": "COc1ccc(Br)c(C(=O)NCC2(N3CCCCC3)CCCCC2)c1", "activation": "inactive: -0.07%"},
      {"molecule": "CN(C)c1cccc(C(=O)NCC2(N(C)C)CCCCC2)c1", "activation": "inactive: 0.13%"},
      {"molecule": "O=C(NCC1(N2CCCCC2)CCCCC1)c1cc([N+](=O)[O-])ccc1Cl", "activation": "inactive: 0.14%"},
      {"molecule": "CC(C)N1C(=O)CC2(CCN(CCOC(=O)C(O)(c3ccccc3)c3ccccc3)CC2)C1=O", "activation": "inactive: 0.6%"},
      {"molecule": "CCN(CC)CC(C)C(C)OC(=O)C(O)(c1ccccc1)c1ccccc1", "note": "(stereo unspecified)", "activation": "inactive: 0.28%"},
      {"molecule": "CN(C)C1CCCC1OC(=O)C(O)(c1ccccc1)c1ccccc1", "note": "(stereo unspecified)", "activation": "inactive: 1.02%"},
      {"molecule": "Cc1ccccc1C(=O)NCC1(N2CCCCC2)CCCCC1", "activation": "inactive: -1.21%"},
      {"molecule": "C=CCN1CCN(CCOC(=O)C(O)(c2ccccc2)c2ccccc2)CC1", "activation": "inactive: 0.34%"},
      {"molecule": "CCN1CCCC(OC(=O)C2(O)c3ccccc3C=Cc3ccccc32)C1", "note": "(stereo unspecified)", "activation": "inactive: 0.54%"}
    ]}
  ]
}
